Reference: ChEMBL document CHEMBL1140203, “cis-4-(Piperazin-1-yl)-5,6,7a,8,9,10,11,11a-octahydrobenzofuro[2,3-h]quinazolin-2-amine (A-987306), a new histamine H4R antagonist that blocks pain responses against carrageenan-induced hyperalgesia” (J Med Chem, 2008)

Sequences of proteins named here, by UniProt entry; tags and fusion partners are left off. A change or cut given only in a name is not applied to a line headed by its entry.
UniProt Q9QYN8: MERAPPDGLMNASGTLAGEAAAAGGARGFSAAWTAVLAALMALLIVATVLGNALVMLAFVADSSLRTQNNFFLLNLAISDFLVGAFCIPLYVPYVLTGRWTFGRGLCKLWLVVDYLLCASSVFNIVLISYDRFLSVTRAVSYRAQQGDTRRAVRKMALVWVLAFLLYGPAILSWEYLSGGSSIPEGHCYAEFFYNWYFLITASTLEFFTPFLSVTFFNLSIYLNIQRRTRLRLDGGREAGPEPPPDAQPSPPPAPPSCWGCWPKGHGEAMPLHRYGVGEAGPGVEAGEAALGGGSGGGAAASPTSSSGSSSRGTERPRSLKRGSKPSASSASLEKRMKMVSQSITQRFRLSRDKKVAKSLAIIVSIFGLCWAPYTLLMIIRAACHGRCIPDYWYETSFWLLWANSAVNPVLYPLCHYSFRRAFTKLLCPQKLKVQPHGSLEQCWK

Target: Histamine H3 receptor (Rattus norvegicus, UniProt Q9QYN8)

- Ki: 1450 nM
SMILES: CN1CCN(C(=O)c2cc3cc(Cl)ccc3[nH]2)CC1 [JNJ-7777120]
